This experiment deals with T1, human RXFP1 (Homo sapiens, UniProt Q9HBX9).
T1 construct: expressed in transfected cells
T1 sequence (Q9HBX9 1-757): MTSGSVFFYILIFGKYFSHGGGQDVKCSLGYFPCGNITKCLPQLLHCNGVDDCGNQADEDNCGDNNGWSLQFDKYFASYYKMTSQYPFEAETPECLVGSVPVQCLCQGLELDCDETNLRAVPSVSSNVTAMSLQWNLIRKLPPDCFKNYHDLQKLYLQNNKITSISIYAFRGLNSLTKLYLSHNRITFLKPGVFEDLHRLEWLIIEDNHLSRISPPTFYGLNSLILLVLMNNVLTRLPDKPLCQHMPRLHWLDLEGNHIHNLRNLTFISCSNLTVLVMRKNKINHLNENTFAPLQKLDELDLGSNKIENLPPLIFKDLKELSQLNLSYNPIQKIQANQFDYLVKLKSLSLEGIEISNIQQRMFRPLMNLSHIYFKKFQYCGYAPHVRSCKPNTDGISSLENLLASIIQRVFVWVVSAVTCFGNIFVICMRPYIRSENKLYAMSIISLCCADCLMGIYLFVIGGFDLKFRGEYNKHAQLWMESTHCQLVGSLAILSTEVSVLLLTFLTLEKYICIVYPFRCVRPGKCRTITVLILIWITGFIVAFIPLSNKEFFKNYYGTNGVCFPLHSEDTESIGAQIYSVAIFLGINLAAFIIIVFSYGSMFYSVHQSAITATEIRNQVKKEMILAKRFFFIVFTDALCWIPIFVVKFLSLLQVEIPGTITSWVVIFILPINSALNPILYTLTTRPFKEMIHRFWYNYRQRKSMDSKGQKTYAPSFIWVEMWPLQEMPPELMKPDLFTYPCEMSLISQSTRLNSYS
Description: RXFP1 cAMP assay (hRXFP1 HEK293 cAMP assay, HTRF). In kind it is cell-based. To be noted: HEK293 cells stably expressing human RXFP1, 30 min at room temperature. Here is the method: RXFP1 Cyclic Adenosine Monophosphate (cAMP) Assays. […] Cells were dissociated and suspended in assay buffer. The assay buffer was HBSS buffer (with calcium and magnesium) containing 20 mM HEPES, 0.05% BSA, and 0.5 mM IBMX. Cells (3000 cells per well, except 1500 cell per well for HEK293 cells stably expressing human RXFP1) were added to 384-well Proxiplates (Perkin-Elmer). Cells were immediately treated with test compounds in DMSO (2% final) at final concentrations in the range of 0.010 nM to 50 μM. Cells were incubated for 30 min at room temperature. The level of intracellular cAMP was determined using the HTRF HiRange cAMP assay reagent kit (Cisbio) according to manufacturer's instructions. Solutions of cryptate conjugated anti-cAMP and d2 fluorophore-labelled cAMP were made in a supplied lysis buffer separately. Upon completion of the reaction, the cells were lysed with equal volume of the d2-cAMP solution and anti-cAMP solution. […] The potency and activity of a compound to […] cAMP production was then determined by fitting to a 4-parametric logistic equation from a plot of cAMP level versus compound concentrations.

This passage reports EC50 results from patent US20250221966A1, “RXFP1 AGONISTS” (BRISTOL-MYERS SQUIBB COMPANY, priority 2021, published 2025).

In turn, “4-fluoro-3′-(1R,2R,3R,4R,Z)-3-((4-fluoro-3-(trifluoromethyl)phenyl)carbamoyl)-7-(2,2,2-trifluoroethylidene)bicyclo[2.2.1]heptan-2-yl)carbamoyl)-4′-methoxy-[1,1′-biphenyl]-3-carboxylic acid [Example 351]” displayed an EC50 of 2.87 µM.

What is called EC50 is the concentration at which the effect is half-maximal. Low readings indicate greater potency, high ones weaker potency.
